Chains of the proteins cited; added tags and fusions are not shown. Residues count along the entry.
UniProt P25942, 21-277: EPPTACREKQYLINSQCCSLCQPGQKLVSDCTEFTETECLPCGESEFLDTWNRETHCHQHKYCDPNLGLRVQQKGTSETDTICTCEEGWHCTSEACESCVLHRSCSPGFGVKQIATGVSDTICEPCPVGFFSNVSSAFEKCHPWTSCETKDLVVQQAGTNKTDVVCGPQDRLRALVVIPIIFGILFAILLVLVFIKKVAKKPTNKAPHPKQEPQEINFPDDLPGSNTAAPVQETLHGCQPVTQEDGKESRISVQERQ

In US20230279137A1 (EVOTEC INTERNATIONAL, published 2023):

Key:
human CD40 = human CD40 (human, UniProt P25942); assay: cell-based or functional assay
[1] = biological target: T1, human type I IFN receptor on HEK-Blue IFN-α/β cells (human, UniProt P17181 28-557; P48551 27-515); assay: cell-based or functional assay
T1 sequence (looked up) 1: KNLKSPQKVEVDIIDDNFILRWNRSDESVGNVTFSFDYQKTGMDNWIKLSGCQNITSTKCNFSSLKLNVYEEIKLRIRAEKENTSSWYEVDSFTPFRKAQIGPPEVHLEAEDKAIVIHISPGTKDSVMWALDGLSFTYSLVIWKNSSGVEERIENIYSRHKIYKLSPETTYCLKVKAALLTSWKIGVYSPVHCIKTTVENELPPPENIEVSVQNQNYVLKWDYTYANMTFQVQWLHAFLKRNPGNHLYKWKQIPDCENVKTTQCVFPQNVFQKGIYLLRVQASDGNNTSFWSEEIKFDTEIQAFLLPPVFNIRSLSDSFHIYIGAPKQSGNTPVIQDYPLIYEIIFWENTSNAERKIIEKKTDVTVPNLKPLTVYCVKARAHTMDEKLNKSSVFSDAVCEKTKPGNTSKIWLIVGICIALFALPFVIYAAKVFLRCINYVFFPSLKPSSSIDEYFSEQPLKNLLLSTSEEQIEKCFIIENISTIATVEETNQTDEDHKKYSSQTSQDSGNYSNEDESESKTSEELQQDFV
T1 sequence (looked up) 2: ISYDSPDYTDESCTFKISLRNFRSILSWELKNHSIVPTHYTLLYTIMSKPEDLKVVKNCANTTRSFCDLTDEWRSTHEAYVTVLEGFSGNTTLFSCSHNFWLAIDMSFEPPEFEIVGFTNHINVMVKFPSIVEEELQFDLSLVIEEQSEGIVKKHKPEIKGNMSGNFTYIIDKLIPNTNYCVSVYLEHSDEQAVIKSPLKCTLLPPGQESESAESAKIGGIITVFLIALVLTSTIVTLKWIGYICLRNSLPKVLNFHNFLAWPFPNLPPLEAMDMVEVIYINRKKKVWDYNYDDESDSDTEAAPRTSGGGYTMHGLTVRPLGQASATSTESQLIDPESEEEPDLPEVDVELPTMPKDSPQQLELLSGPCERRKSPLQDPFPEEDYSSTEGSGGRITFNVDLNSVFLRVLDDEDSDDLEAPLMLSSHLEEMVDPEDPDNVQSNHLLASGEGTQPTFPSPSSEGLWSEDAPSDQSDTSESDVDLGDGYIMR

B1: IFA46 (antibody, human IgG2, kappa)
light: DIQMTQSPSSVSASVGDRVTITCRASQGIYSWLAWYQQKPGKAPNLLIYTASTLQSGVPSRFSGSGSGTDFTLTISSLQPEDFATYYCQQANIFPLTFGGGTKVEIKRTVAAPSVFIFPPSDEQLKSGTASVVCLLNNFYPREAKVQWKVDNALQSGNSQESVTEQDSKDSTYSLSSTLTLSKADYEKHKVYACEVTHQGLSSPVTKSFNRGECGGGGSGGGGSGGGGSGGGGS[about 150 residues omitted]
heavy: QVQLVQSGAEVKKPGASVKVSCKASGYTFTGYYMHWVRQAPGQGLEWMGWINPDSGGTNYAQKFQGRVTMTRDTSISTAYMELNRLRSDDTAVYYCARDQPLGYCTNGVCSYFDYWGQGTLVTVSSASTKGPSVFPLAPCSRSTSESTAALGCLVKDYFPEPVTVSWNSGALTSGVHTFPAVLQSSGLYSLSSVVTVPSSNFGTQTYTCNVDHKPSNTKVDKTVERKCCVECPPCPAPPVAGPSVFLFPPKPKDTLMISRTPEVTCVVVDVSHEDPEVQFNWYVDGVEVHNAKTKPREEQFNSTFRVVSVLTVVHQDWLNGKEYKCKVSNKGLPAPIEKTISKTKGQPREPQVYTLPPSREEMTKNQVSLTCLVKGFYPSDIAVEWESNGQPENNYKTTPPMLDSDGSFFLYSKLTVDKSRWQQGNVFSCSVMHEALHNHYTQKSLSLSPGK
Human CD40
  CD40 EC50 (ng/mL), NFκB-SEAP reporter in HEK-Blue CD40L cells: 86.3 ng/mL
[1]
  IFNω EC50 (ng/mL), SEAP reporter in HEK-Blue hIFN-α/β cells: 0.493 ng/mL
